Structures are written as SMILES.

By UniProt entry, the sequences of proteins in these tests, tags left out.
UniProt P27338, whole entry: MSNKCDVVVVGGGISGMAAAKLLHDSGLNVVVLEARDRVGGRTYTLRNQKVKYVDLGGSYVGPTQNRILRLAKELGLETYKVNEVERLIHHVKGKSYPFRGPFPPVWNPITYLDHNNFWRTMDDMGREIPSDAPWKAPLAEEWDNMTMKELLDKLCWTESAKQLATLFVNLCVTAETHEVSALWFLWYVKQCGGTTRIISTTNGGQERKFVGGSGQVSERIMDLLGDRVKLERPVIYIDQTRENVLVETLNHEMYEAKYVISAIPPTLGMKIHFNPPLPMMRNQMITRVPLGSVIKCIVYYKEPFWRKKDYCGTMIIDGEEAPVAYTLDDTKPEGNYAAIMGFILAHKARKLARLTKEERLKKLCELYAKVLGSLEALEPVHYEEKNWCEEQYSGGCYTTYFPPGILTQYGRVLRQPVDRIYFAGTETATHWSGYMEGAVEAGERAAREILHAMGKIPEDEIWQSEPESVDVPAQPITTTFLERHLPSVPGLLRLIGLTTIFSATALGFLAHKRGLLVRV

This experiment addresses Amine oxidase [flavin-containing] B (Homo sapiens, UniProt P27338). The conditions noted are these: read-out: INH.

Turning to `C#CCN(C)Cc1ccccc1` [PARGYLINE], the inhibition at 0.2 µM is 56.6%.

Source of the values: ChEMBL document CHEMBL2331140, “A novel series of tacrine-selegiline hybrids with cholinesterase and monoamine oxidase inhibition activities for the treatment of Alzheimer's disease” (Eur J Med Chem, 2013).
